Measured affinities in a library of Ab-14 heavy chain variants

The measurements come from Li et al. 2023 (doi:10.1038/s41467-023-39022-2) through the FLAb antibody collection.

Target: peptide PDVDLGDISGINAS, taken from heptad repeat 2 (HR2) of SARS-CoV-2 spike.

Each scFv is VH, a 15-residue (Gly4Ser)3 linker, VL, as in the parent Ab-14, and differs from it in the CDRs of the heavy chain only.
VH: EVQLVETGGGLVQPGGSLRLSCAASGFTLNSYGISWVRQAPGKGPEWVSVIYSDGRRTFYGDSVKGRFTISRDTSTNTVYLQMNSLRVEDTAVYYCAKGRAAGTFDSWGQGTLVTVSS
VL: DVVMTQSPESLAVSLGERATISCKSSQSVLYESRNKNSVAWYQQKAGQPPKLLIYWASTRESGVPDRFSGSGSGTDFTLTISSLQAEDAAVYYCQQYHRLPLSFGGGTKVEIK

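The starting antibody came from a phage panning campaign against this peptide. Designed CDR sequences, proposed from the first random library and measured here. Group labels follow the data file (Ctrl: baseline library sampled from a position-specific scoring matrix, with some repeated check sequences; Rand: our label for a block that the file lists under HC and that is probably the random mutants of the ten best first-round binders; En: ensemble of fine-tuned language models; GP: Gaussian process model; GPLM: also part of the Gaussian process libraries; HC: hill climbing; Gen: genetic algorithm; Gibbs: Gibbs sampling; a sequence that several methods proposed may carry one label only). The assay is AlphaSeq: two haploid yeast populations carry antibody and antigen on their surface. Binding brings cells together so that they mate, and sequencing counts the barcode pairs among the diploids. Scores were corrected for input abundance and mapped to Kd with protein pairs of known affinity run in the same pool. Each pool was mated in six replicate cultures.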

The parent's heavy chain CDRs are GFTLNSYGIS, VIYSDGRRTFYGDSVK, GRAAGTFDS; each variant's own CDRs replace them letter for letter. Scale: log10 of Kd in nM, estimated from mating counts; low values are strong binders. A mean of the replicates is given; it leaves out those without a signal. "no signal" means that the variant was in the library but no mating with the target was seen in any replicate; the authors take this as a sign of poor binding, and no number exists. Of ten entries with the parent sequence, four were seen in most replicates (averages 0.34 to 2.37), three in one and three in none, so single entries are noisy.

CDR-H1,CDR-H2,CDR-H3,group,"log10 Kd (nM), mean",replicates with signal,control signals
GYTLNDYGIS,VIYSDGRRTEYSDSVK,GRAAGTFDS,GP_HC,3.19,1/6,2/18
GFDLNEYGIS,VIYADGHRTKYSNNVK,GGQAGIALS,En_Gibbs,no signal,0/6,0/18
GFDLNEYGIS,VIYADGVRTAYAESVK,GNVAGTFDV,En_Gen,-0.54,6/6,0/18
GFQLEEYGIS,VIYADGSRTAYQDSVK,GKYKFSLVV,En_Gibbs,-0.06,6/6,0/18
GFDVDEYGIS,VIYADGKRSMYANKVK,GGIGGMFFQ,En_Gibbs,no signal,0/6,0/18
GKSLDEYGIS,VIYADGLRSVYANSVK,GQFDDTKDL,En_Gibbs,no signal,0/6,0/18
GFDLNEYGIS,VIYADGMRKAYADNVK,GENAGTFDV,En_Gen,-0.86,6/6,0/18
GFTLNDYGIS,VIYSDGRRTFYADAVK,GRAAGTFRS,GP_HC,no signal,0/6,0/18
GFELNEYGIS,VIYSDGRRTFYGDSVK,GKTAGTFDK,GP_Gen,-0.09,6/6,0/18
GFELNQYGIS,VIYSDGRRTAYQDSVK,GRAAGTFDS,GP_HC,-0.41,6/6,1/18
GFTLNSYGIS,VIYSDGKRTFYSDSVK,GRAAVTFDS,GP_HC,no signal,0/6,0/18
GFDLNMYGIS,VIYSDGRRTFYADSVK,GQAAGTFDS,GPLM_Gen,-0.15,6/6,0/18
GFDLNEYGIS,VIYADGKRTFYADSVK,GQAAGTFDM,En_HC,-0.38,6/6,0/18
GFTLEDYGIS,VIYSDGRRTSYGDSVK,TREAGHFDS,Ctrl,no signal,0/6,1/18
GFDLDEYGIS,VIYADGVRTAYADSVK,GNVAGTFDQ,En_Gen,0.09,6/6,0/18
GFNLNSYGIS,VIYSDGRRTFYGDSVK,GQAAGTFDQ,GP_Gen,1.24,5/6,0/18
GFQINEYGIS,VIYADGLRTAYSQQVK,GQDTVNFVD,En_Gibbs,no signal,0/6,0/18
GFDINEYGIS,VIYADGMRTAYADSVK,GNVAGTFDI,En_Gen,-0.25,6/6,1/18
GFTLNSYGIS,VIYADGRRTFYGDSVK,GRAAGSFDS,Ctrl,1.26,6/6,0/18
GFSLNSYGIS,VIYSDGRRTFYGDSVK,GEAAGTFDA,GPLM_Gen,1.86,1/6,0/18
GFDLNDYGIS,VIYADGRRTFYADSVK,GEVAGTFDS,En_HC,-0.46,6/6,0/18
GFELNSYGIS,VIYSDGLRTFYGDSVK,GRTAGTFDS,GP_Gen,0.58,6/6,0/18
SFTLNSYGIS,VIYADGRRTFYGDSVK,GEAAGTFDS,GPLM_Gen,-0.26,6/6,0/18
GFTLNSYGIS,VIYSDGRRTFYKDSVK,GRNAGTFDS,Ctrl,1.59,3/6,0/18
GFNLNSYGIS,VIYSDGRRTFYVDKVK,GRNAGTFDS,GP_Gibbs,no signal,0/6,0/18
GFTLNWYGIS,VIYSDGRRTFYGDSVK,GRAAVTFDQ,Rand,no signal,0/6,0/18
GFDLNEYGIS,VIYADGRRTAYTDSVK,GHTAGTFKL,En_HC,0.58,6/6,0/18
GFNLNSYGIS,VIYSDGRRTFYGDSVK,GEAAGTFDT,GP_Gen,0.85,6/6,0/18
GFVLEEYGIS,VIYADGMRTVYAEDFK,GQTGGNFHH,En_Gibbs,no signal,0/6,0/18
GFDLDEYGIS,VIYADGMRTAYADSVK,GKVAGTFDV,En_Gen,-0.44,6/6,0/18
GFDLNEYGIS,VIYADGVRKAYADSVK,GNTAGTFDI,En_Gen,-0.53,6/6,0/18
GFTLNSYGIS,VIYSDGRRTFYLDSVK,GKAPKTFDS,Ctrl,no signal,0/6,1/18
GFDLDEYGIS,VIYADGVRTAYSDSVK,GENAGTFDM,En_Gen,0.92,6/6,0/18
GFTLNSYGIS,VIYSDGIRTFYGGSVK,GRAAGTFDS,Ctrl,no signal,0/6,1/18
GFDLNEYGIS,VIYADGKRTFYADSVK,GNLAGTFDQ,En_HC,-0.48,6/6,1/18
GFDLNSYGIS,VIYSDGRRTFYQDSVK,GRAAGHFDS,GP_HC,2.72,1/6,0/18
GFELNDYGIS,VIYSDGRRTFYHDSVK,GRTAGTFDS,GP_Gen,-0.46,6/6,0/18
GFTLNSYGIS,VIYSDGFRTFYGDSVK,GRAAGTFEK,Ctrl,1.14,3/6,0/18
GFDIEDYGIS,VIYADGQRTVEASNFK,GKIAGTFNL,En_Gibbs,-0.10,6/6,0/18
GQGLDEYGIS,VIYADGMRNAYSNNVK,GQGGAVLGI,En_Gibbs,no signal,0/6,1/18
KFDIEHYGIS,VIYADGKRSGYSNAVK,GQQAGTFNT,En_Gibbs,0.20,6/6,0/18
GFDLNEYGIS,VIYADGVRTAYVDKVK,GNVAGTFDV,En_Gen,-0.36,6/6,1/18
GFTLNSYGIS,VIYSDGKRTFYGDAVK,GEAAGTFDN,GPLM_Gibbs,1.79,3/6,0/18
GFDLNEYGIS,VIYADGRRTQYIDSVK,GENAGTFDA,En_HC,-0.76,6/6,0/18
GFELNSYGIS,VIYSDGRRTFYSDQVK,GQAAGTFDS,GP_Gibbs,1.00,6/6,0/18
GFTLNEYGIS,VIYSDGRRTFYSDSVK,GRAAGTFDT,GPLM_HC,-0.17,6/6,0/18

7 of these entries, quoted again:

{"CDR-H1": "GFDLNEYGIS", "CDR-H2": "VIYADGRRTAYTDSVK", "CDR-H3": "GHTAGTFKL", "group": "En_HC", "log10 Kd (nM), mean": "0.58", "replicates with signal": "6/6", "control signals": "0/18"}
{"CDR-H1": "GFTLNWYGIS", "CDR-H2": "VIYSDGRRTFYGDSVK", "CDR-H3": "GRAAVTFDQ", "group": "Rand", "log10 Kd (nM), mean": "no signal", "replicates with signal": "0/6", "control signals": "0/18"}
{"CDR-H1": "GFTLNEYGIS", "CDR-H2": "VIYSDGRRTFYSDSVK", "CDR-H3": "GRAAGTFDT", "group": "GPLM_HC", "log10 Kd (nM), mean": "-0.17", "replicates with signal": "6/6", "control signals": "0/18"}
{"CDR-H1": "GFELNSYGIS", "CDR-H2": "VIYSDGLRTFYGDSVK", "CDR-H3": "GRTAGTFDS", "group": "GP_Gen", "log10 Kd (nM), mean": "0.58", "replicates with signal": "6/6", "control signals": "0/18"}
{"CDR-H1": "SFTLNSYGIS", "CDR-H2": "VIYADGRRTFYGDSVK", "CDR-H3": "GEAAGTFDS", "group": "GPLM_Gen", "log10 Kd (nM), mean": "-0.26", "replicates with signal": "6/6", "control signals": "0/18"}
{"CDR-H1": "GFDVDEYGIS", "CDR-H2": "VIYADGKRSMYANKVK", "CDR-H3": "GGIGGMFFQ", "group": "En_Gibbs", "log10 Kd (nM), mean": "no signal", "replicates with signal": "0/6", "control signals": "0/18"}
{"CDR-H1": "GFTLNSYGIS", "CDR-H2": "VIYSDGFRTFYGDSVK", "CDR-H3": "GRAAGTFEK", "group": "Ctrl", "log10 Kd (nM), mean": "1.14", "replicates with signal": "3/6", "control signals": "0/18"}

In the paper, a design with two or fewer of six values counts as a poor binder. The range of this assay differs from that of the first round, and the authors advise against merging the two. Three control strains display no target. For all heavy chain designs, 1% of the pairings with them gave a signal, with a median of 2.08 and one signal in twenty below 0.84, so weak values seen in few replicates may be background. For each scFv, signals with the empty controls are counted beside the result.